# Source: PMC11098091 (Nature chemical biology, 2022)
# Amino acid sequences for entries named in this document (tags omitted).
# UniProt P35372, whole entry Y328F: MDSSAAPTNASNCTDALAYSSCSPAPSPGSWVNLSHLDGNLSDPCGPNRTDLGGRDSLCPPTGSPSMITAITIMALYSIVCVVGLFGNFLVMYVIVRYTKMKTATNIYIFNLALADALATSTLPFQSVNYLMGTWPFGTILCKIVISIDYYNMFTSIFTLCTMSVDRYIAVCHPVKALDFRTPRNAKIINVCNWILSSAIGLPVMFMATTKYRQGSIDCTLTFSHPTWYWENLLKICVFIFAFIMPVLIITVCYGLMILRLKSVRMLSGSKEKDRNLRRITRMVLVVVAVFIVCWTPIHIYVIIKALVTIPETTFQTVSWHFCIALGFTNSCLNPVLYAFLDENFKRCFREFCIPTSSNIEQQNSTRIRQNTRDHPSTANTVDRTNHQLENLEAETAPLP
# UniProt P35372, whole entry: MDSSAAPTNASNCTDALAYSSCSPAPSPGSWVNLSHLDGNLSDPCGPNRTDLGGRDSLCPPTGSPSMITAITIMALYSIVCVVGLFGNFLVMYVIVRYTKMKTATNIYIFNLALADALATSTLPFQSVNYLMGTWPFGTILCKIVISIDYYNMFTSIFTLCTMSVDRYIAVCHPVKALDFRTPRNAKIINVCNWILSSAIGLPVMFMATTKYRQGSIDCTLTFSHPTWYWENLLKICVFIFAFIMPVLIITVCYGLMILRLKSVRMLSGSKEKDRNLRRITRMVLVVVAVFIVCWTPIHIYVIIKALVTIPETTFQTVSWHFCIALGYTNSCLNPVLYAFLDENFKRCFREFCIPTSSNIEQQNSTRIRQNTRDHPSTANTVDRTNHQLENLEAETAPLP
# UniProt P35372, whole entry Q126A: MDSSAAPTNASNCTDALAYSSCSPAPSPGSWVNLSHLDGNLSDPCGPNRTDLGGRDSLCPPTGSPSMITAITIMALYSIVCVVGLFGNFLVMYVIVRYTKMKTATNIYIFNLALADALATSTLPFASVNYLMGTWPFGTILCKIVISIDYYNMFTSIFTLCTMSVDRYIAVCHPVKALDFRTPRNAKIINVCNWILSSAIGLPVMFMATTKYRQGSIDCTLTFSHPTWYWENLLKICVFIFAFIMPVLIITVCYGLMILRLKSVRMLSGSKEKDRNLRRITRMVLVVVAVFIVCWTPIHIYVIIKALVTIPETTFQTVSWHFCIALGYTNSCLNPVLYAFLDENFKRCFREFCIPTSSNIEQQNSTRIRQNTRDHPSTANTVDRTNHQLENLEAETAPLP
# Experiments:
# Assay type in all cases: cell-based
# μOR Y326^7.43F mutant = μOR Y326^7.43F mutant (Homo sapiens, UniProt P35372, Y328F)
# human μOR = human μOR (Homo sapiens, UniProt P35372)
# μOR Q124^2.60A mutant = μOR Q124^2.60A mutant (Homo sapiens, UniProt P35372, Q126A)
substance,measurement,setting,value
"(D-Ala^2, N-MePhe^4, Gly-ol)-enkephalin [DAMGO]",reduction of maximal Gi1 activation by the Y326F mutation,μOR Y326^7.43F mutant,36%
same,potency spread across G protein subtypes,human μOR,~ 2 fold
same,reduction of potency by the Q124A mutation,μOR Q124^2.60A mutant,100 fold
